# Patent US6114175A, “Compound for the antemortem diagnosis of Alzheimer's Disease and in vivo imaging and prevention of amyloid deposition” (priority 1998, dated 2000)
# Tests used:
# AD brain = assay: Total [^14 C]Chrysamine G binding in AD brain homogenates; details: n = 11, p = 0.15
# control brain = assay: Total [^14 C]Chrysamine G binding in control brain homogenates; details: n = 8
smiles,measurement,setting,value
"O=C(O)c1cc(N=Nc2ccc(-c3ccc(N=Nc4ccc(O)c(C(=O)O)c4)cc3)cc2)ccc1O [Chrysamine G, 4,4'-bis(3-carboxy-4-hydroxyphenylazo)-biphenyl]","total binding, Occipital",AD brain,95 ± 12 fmol/μg protein
same,"total binding, Occipital",control brain,64 ± 16 fmol/μg protein
